# Assay results reported in patent publication US10744084B2, “Non-specific delayed-type hypersensitivity response to treat herpes simplex virus infection” (Squarex, LLC, priority 2007, dated 2020).
# Experiment: Presensitization and dose finding: DNCB solution in acetone applied to spots on the forearm, DTH rash/erythema observed
# Format: in vivo, human
# Details: 0.2% DNCB solution
# Description: The subject was presensitized to DNCB by dipping a cotton-tipped swab in a 2% DNCB solution in acetone, and contacting the cotton-tipped swab with two spots on the forearm. […] Two weeks later, the subject again applied a 2% DNCB solution to their forearm at two small spots different from where the sensitizing dose had been applied. […] The subject then applied a 0.1%, 0.2%, and 0.3% solutions to separate small spots on the forearm.
smiles,measurement,value
"O=[N+]([O-])c1ccc(Cl)c([N+](=O)[O-])c1 [DNCB, 1-chloro-2,4-dinitrobenzene]",duration of erythema,about 3 days
same,onset of erythema after applying the solution,2 days
